This passage reports inhibition and Activity results from ChEMBL document CHEMBL5543164 (J Med Chem, 2024).

Sequences of proteins named here, by UniProt entry; tags and fusion partners are left off. A change or cut given only in a name is not applied to a line headed by its entry.
UniProt P23443: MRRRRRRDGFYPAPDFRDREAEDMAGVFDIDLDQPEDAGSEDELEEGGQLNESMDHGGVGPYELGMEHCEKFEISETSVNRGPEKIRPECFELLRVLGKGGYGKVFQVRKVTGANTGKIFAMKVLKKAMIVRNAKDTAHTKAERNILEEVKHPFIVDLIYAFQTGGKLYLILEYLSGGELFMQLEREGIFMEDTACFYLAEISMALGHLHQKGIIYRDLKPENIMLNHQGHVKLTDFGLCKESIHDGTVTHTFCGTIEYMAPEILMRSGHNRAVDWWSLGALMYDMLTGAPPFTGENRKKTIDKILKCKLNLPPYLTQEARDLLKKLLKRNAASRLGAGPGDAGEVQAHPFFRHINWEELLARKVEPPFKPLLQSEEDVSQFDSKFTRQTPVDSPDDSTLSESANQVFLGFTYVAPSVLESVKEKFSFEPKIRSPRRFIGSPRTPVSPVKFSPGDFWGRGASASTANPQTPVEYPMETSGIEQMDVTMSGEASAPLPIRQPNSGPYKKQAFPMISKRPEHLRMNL
UniProt Q13541: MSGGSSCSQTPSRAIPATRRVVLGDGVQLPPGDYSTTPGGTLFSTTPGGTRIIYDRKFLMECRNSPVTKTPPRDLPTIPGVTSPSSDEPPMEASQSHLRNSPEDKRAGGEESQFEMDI
UniProt P31749: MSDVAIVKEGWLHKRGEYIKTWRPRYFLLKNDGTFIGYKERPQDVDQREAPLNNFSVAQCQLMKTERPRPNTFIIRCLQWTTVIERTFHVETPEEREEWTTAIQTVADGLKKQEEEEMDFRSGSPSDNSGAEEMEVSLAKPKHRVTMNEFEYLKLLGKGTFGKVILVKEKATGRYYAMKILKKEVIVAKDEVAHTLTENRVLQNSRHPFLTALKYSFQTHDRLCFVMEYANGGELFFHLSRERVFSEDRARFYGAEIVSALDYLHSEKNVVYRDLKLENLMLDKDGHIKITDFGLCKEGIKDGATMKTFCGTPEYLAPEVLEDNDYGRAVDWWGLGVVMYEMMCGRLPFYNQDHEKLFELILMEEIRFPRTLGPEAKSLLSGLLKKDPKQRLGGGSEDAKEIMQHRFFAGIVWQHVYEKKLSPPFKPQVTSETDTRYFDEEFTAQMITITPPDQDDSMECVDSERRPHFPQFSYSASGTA
UniProt P48736: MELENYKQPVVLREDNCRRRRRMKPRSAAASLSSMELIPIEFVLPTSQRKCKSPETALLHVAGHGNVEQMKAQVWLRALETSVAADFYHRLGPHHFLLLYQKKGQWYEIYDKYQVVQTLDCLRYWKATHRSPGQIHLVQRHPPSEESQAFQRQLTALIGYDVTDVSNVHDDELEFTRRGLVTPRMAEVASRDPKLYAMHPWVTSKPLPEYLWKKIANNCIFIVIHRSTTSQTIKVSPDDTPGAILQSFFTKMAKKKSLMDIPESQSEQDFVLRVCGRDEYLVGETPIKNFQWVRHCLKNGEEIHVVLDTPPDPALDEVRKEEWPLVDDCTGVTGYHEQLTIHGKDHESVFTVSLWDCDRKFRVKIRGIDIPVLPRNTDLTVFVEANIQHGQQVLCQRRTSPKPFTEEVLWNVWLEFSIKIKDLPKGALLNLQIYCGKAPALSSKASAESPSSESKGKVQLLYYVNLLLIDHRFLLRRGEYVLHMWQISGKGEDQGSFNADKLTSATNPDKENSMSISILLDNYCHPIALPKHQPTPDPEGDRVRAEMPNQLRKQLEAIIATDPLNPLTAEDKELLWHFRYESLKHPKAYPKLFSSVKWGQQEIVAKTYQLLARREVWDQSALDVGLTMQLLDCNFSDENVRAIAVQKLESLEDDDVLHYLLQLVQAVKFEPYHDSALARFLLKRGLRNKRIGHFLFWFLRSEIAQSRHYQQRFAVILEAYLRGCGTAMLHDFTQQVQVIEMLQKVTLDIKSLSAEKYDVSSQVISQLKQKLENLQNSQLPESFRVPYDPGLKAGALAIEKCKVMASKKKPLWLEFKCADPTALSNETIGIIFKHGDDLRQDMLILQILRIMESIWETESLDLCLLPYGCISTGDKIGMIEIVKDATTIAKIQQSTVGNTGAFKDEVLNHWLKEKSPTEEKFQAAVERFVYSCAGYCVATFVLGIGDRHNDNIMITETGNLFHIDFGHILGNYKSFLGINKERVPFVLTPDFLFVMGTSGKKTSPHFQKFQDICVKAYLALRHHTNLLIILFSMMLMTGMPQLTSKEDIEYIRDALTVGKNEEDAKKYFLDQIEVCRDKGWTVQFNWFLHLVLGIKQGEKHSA
UniProt Q6R327, whole entry, looked up: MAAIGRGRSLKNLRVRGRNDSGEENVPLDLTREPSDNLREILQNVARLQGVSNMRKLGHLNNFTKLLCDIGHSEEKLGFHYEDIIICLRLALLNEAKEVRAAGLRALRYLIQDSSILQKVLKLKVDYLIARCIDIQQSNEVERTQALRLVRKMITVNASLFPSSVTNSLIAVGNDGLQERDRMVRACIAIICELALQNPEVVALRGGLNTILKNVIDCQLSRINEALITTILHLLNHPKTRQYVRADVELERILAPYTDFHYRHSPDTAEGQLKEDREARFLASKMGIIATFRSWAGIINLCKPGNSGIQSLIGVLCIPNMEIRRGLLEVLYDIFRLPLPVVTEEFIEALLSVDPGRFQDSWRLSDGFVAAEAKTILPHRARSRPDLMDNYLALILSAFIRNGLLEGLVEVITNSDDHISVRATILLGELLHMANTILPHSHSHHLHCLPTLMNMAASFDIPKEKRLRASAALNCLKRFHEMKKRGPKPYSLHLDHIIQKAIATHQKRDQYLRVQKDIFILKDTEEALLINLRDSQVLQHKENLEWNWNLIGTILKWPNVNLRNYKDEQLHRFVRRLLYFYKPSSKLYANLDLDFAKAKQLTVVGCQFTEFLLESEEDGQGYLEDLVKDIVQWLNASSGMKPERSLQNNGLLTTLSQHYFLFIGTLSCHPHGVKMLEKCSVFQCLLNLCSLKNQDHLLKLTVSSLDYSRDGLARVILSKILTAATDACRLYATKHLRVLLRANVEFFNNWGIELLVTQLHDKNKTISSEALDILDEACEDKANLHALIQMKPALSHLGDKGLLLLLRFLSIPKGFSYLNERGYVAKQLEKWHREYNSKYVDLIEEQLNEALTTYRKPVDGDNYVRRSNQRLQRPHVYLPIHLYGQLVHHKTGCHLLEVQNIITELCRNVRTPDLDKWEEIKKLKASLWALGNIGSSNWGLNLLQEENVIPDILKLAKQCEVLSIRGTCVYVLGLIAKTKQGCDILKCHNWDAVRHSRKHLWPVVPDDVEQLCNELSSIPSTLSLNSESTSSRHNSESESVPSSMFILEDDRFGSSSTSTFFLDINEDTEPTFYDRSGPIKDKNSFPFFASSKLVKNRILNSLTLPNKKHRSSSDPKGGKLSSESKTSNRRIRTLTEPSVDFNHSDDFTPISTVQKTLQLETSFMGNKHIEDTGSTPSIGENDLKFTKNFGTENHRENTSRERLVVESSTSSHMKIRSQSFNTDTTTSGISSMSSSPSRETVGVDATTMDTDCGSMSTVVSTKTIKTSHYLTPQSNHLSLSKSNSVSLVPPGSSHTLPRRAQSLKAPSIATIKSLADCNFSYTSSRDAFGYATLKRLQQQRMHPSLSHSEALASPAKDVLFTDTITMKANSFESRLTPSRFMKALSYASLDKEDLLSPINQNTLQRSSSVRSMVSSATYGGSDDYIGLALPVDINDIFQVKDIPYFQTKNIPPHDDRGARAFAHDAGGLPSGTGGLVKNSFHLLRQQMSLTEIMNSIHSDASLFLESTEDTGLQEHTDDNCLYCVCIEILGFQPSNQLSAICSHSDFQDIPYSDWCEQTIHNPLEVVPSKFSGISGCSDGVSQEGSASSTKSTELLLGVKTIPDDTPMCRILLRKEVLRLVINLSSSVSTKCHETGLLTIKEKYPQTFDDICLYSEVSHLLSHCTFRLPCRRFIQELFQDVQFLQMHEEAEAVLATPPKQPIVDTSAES
UniProt Q9BVC4, whole entry, looked up: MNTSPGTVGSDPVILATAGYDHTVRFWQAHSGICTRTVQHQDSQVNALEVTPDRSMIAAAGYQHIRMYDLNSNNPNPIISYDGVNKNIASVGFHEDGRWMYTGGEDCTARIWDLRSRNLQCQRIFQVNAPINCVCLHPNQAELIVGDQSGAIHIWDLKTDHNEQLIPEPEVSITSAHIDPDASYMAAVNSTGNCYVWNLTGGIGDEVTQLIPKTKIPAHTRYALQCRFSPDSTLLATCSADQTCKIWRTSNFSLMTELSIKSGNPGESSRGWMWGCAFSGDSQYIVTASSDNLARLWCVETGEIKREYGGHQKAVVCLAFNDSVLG
UniProt Q9BPZ7, whole entry, looked up: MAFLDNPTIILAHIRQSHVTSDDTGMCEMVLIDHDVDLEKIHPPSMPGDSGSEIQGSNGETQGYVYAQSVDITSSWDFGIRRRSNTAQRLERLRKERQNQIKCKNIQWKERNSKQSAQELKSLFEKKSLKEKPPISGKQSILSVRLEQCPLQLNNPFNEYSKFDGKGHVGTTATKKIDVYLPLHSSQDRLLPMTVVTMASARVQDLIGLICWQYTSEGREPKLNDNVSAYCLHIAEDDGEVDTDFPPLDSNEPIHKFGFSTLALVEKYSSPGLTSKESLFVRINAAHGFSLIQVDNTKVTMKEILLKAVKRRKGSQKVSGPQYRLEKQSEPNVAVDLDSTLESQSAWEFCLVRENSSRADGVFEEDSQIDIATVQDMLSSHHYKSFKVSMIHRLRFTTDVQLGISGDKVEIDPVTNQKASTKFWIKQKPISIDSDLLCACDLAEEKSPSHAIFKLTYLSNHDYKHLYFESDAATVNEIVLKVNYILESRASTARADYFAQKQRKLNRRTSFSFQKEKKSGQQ
UniProt O00750: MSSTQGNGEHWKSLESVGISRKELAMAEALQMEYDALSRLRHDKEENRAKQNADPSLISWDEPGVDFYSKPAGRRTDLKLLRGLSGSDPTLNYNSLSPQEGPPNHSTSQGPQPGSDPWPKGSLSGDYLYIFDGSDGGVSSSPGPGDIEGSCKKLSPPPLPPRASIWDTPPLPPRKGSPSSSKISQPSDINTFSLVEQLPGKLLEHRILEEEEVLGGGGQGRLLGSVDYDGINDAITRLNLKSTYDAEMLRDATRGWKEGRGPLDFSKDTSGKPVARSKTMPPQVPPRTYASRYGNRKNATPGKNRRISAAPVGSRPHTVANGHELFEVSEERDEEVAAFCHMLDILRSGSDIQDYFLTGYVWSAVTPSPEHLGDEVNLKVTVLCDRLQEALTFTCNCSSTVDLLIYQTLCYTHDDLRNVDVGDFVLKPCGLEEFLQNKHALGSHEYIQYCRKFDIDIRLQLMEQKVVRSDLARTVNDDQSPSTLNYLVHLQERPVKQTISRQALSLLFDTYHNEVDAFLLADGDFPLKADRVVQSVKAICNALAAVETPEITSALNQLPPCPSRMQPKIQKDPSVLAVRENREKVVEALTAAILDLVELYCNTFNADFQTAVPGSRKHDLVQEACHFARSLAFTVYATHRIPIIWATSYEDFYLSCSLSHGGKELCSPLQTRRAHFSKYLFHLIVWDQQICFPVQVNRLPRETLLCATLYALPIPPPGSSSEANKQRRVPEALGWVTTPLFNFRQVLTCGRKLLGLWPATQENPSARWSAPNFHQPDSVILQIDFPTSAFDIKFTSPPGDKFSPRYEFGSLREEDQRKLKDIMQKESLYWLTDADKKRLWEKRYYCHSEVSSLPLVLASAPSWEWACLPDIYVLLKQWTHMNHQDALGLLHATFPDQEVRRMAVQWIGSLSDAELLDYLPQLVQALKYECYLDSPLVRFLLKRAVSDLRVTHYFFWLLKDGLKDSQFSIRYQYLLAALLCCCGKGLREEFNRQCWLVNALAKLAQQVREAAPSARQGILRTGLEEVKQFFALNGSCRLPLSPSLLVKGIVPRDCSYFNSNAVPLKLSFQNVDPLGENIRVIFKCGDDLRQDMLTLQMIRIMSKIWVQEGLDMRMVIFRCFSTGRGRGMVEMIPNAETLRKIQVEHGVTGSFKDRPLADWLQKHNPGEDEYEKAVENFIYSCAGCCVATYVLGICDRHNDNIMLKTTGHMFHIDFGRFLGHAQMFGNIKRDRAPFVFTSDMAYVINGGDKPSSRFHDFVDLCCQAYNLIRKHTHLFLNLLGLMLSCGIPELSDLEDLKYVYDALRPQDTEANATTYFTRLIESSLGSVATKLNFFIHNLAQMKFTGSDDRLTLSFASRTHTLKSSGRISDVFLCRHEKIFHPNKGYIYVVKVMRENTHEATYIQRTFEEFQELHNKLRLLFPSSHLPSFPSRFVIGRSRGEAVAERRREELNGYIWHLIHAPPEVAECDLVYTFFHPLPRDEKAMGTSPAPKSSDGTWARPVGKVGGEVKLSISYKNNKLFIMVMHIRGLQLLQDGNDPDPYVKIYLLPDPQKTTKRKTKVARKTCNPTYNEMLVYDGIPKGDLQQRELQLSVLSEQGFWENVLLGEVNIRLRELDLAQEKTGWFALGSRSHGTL

The target in assay [1] is Ribosomal protein S6 kinase beta-1 (Homo sapiens) (UniProt P23443). The assay is described as follows: Inhibition of 70S6K phosphorylation at Thr-389 residue in human MCF7 cells at 1 to 10 uM incubated for 24 hrs by Western blotting analysis. Particulars: dose 1-10 µM. In kind it is cell-based. On the technique in general: A western blot detects proteins with antibodies after separation by electrophoresis.

For assay [2], the target named is Eukaryotic translation initiation factor 4E-binding protein 1 (Homo sapiens) (UniProt Q13541). The assay is described as follows: Inhibition of 4EBP1 phosphorylation at T37146 residue in human MCF7 cells at 1 to 10 uM incubated for 24 hrs by Western blot analysis. In kind it is cell-based. The following applies: dose 1-10 µM.
The target of assay [3] is RAC-alpha serine/threonine-protein kinase (Homo sapiens) (UniProt P31749). The assay is described as follows: Inhibition of AKT phosphorylation at S473 residue in human MCF7 cells at 1 to 10 uM incubated for 24 hrs by Western blot analysis. The format is cell-based. The following applies: dose 1-10 µM.
The target in assay [4] is Phosphatidylinositol 4,5-bisphosphate 3-kinase catalytic subunit gamma isoform (Homo sapiens, UniProt P48736). The assay is described as follows: Binding affinity to PIK3CG (unknown origin).
The target of a further assay is mTORC2 (Homo sapiens) (UniProt P42345+Q6R327+Q9BVC4+Q9BPZ7). The assay is described as follows: Inhibition of mTORC2 (unknown origin) by Lance ultra assay. The format is protein-complex assay.
In assay [5] the target is T1, Phosphatidylinositol 4,5-bisphosphate 3-kinase catalytic subunit delta isoform (Homo sapiens) (UniProt O00329).
T1 sequence (whole entry): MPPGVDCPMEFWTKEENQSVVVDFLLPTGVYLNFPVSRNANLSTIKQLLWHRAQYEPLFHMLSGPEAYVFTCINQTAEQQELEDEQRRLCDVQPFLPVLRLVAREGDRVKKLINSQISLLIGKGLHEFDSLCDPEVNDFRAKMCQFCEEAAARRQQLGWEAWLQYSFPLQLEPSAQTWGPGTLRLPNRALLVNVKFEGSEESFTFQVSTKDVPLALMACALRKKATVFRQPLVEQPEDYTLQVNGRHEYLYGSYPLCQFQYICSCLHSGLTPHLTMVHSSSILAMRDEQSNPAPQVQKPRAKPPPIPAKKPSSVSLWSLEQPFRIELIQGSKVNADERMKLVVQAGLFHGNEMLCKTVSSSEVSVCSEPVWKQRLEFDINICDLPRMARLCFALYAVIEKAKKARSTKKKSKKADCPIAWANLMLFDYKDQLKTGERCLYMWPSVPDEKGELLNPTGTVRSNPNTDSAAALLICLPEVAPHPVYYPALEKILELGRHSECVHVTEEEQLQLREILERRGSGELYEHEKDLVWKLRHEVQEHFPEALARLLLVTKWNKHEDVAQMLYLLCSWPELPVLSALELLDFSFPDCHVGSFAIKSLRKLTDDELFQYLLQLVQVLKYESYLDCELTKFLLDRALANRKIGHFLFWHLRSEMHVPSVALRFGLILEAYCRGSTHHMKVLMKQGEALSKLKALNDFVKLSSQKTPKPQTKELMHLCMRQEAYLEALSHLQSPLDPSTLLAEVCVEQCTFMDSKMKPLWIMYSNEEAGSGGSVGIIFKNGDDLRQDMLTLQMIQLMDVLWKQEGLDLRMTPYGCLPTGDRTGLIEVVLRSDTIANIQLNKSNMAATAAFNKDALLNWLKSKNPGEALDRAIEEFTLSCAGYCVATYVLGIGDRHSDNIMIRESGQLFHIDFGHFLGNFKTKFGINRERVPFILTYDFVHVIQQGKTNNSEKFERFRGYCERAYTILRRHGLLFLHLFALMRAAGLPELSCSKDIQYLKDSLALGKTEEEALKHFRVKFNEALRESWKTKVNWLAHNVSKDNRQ
In words: Binding affinity to PIK3CD (unknown origin).

A further assay deals with mTORC1 (Homo sapiens) (UniProt P42345+Q8N122+Q9BVC4). In words: Inhibition of mTORC1 (unknown origin) by Lance ultra assay. The format is protein-complex assay.
Assay [6] concerns the target Phosphatidylinositol 4-phosphate 3-kinase C2 domain-containing subunit beta (Homo sapiens) (UniProt O00750). The assay is described as follows: Binding affinity to PIK3C2B (unknown origin).

The source made the active and inactive calls. No cut-off for these calls is given here.

For `CN(C)C1CCN(C(=O)c2ccc(NC(=O)Nc3ccc(-c4nc(N5CCOCC5)nc(N5CCOCC5)n4)cc3)cc2)CC1` [GEDATOLISIB], the inhibition result in assay [1], in assay [2] and in assay [3] was “Active” throughout.
Take `O=C(Nc1ccc(-c2nc(N3C4CCC3COC4)nc(N3C4CCC3COC4)n2)cc1)Nc1ccc2c(c1)COC2=O`: the inhibition entry (in assay [1]; on mTORC2 (Homo sapiens); in assay [2]; on mTORC1 (Homo sapiens); in assay [3]) was “Active” each time. Besides, the outcome in assay [4], in assay [5] and in assay [6] was inactive.
